Assays:
Format in all cases: cell-based
[1] = target: T1, wild-type Androgen Receptor (AR-wt) (Homo sapiens (Human), UniProt P10275); experiment: LNCaP-AR-wt AG reporter assay (agonist mode); conditions: for Emax: read-out: LNCaP-AR-wt AG MAX % Stim
[2] = target: T2, F876L mutant Androgen Receptor (AR-F876L) (Homo sapiens (Human), UniProt P10275, F877L); experiment: LNCaP-AR-F876L AG reporter assay (agonist mode); conditions: for Emax: read-out: LNCaP-AR-F876L AG MAX % Stim
[3] = target: T1, wild-type Androgen Receptor (AR-wt); experiment: LNCaP-AR-wt ANT reporter assay (antagonist mode); conditions: read-out: LNCaP-AR-wt ANT MAX % Inh
[4] = target: T2, F876L mutant Androgen Receptor (AR-F876L); experiment: LNCaP-AR-F876L ANT reporter assay (antagonist mode); conditions: read-out: LNCaP-AR-F876L ANT MAX % Inh
[5] = agonist mode, pEC50 = −Log10(EC50 in Molar)
[6] = maximum % stimulation (agonist response) over the tested concentration range

Protein sequences, listed by entry. Tags and fused reporters are not part of them.
UniProt P10275, whole entry F877L: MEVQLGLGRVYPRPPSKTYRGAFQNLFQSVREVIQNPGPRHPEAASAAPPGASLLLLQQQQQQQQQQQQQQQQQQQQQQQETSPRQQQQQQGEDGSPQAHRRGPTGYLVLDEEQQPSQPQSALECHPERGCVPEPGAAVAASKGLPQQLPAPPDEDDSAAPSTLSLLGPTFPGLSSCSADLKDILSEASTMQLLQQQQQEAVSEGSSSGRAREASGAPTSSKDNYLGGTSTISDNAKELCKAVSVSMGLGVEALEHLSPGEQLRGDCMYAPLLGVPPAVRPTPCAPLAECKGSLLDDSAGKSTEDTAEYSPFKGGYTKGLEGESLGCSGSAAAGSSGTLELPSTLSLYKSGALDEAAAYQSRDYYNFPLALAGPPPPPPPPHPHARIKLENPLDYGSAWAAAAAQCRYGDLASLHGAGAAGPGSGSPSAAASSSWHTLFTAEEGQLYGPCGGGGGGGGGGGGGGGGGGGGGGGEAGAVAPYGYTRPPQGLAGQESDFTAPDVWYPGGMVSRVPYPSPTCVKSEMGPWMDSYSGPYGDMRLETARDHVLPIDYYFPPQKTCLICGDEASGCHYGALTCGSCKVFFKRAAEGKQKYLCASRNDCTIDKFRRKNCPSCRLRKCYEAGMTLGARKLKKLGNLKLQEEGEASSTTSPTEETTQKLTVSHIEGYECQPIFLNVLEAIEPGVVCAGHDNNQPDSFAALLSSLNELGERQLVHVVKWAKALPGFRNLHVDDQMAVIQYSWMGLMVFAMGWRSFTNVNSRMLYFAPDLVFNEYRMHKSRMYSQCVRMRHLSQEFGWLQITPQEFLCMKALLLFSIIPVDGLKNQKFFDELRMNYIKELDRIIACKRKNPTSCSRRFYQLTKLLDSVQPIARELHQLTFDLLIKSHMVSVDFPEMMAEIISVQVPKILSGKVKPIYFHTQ

Row | SMILES | EC50 [1, 5] | Emax [1, 6] | EC50 [2, 5] | Emax [2, 6] | Emax [1] | Emax [3] | Emax [2] | Emax [4]
1 | N#Cc1ncc(N2C(=O)C3(CCC3)N(c3ccc(Br)cc3)C2=S)cc1C(F)(F)F [Cpd 28, 5-[8-(4-bromophenyl)-5-oxo-7-thioxo-6,8-diazaspiro[3.4]octan-6-yl]-3-(trifluoromethyl)pyridine-2-carbonitrile] | > 15.1 µM | 0.2% | > 15.1 µM | 0.8% |  |  |  | 
2 | CNC(=S)c1ccc(N2C(=S)N(c3cnc(C#N)c(C(F)(F)F)c3)C(=O)C23CCC3)cc1F [Cpd 11, 4-(7-(6-cyano-5-(trifluoromethyl)pyridin-3-yl)-8-oxo-6-thioxo-5,7-diazaspiro[3.4]octan-5-yl)-2-fluoro-N-methylbenzothioamide] |  |  |  |  | 2.8% | 99.4% | 2% | 95.3%

— patent US10981926B2 (Janssen Pharmaceutica NV, priority 2016, dated 2021)
